Experimental data: ChEMBL document CHEMBL1155485, “Pyrimidine ribonucleotides with enhanced selectivity as P2Y(6) receptor agonists: novel 4-alkyloxyimino, (S)-methanocarba, and 5'-triphosphate gamma-ester modifications” (J Med Chem, 2010)

Protein sequences, listed by entry. Tags and fused reporters are not part of them. Lines headed by an entry give the natural chain unless they say otherwise; changes in a name come on top.
UniProt Q15077: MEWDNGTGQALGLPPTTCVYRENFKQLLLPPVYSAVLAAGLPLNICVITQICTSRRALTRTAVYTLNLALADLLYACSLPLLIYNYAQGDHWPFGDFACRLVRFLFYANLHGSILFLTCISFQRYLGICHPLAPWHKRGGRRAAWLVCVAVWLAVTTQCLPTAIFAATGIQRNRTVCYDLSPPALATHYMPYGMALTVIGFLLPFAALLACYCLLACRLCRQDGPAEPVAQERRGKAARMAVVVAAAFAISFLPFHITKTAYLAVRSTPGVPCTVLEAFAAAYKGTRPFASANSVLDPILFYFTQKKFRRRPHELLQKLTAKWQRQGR

Molecular target: P2Y purinoceptor 6 (Homo sapiens, UniProt Q15077)
Test: Agonist activity at human recombinant P2Y6 receptor expressed in human 1321N1 cells assessed as [3H]inositol phosphate production up to 10 uM by scintillation proximity assay
Assay type: functional, cell-based
Summary of the method: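 Human 1321N1 astrocytoma cells stably expressing the human P2Y2 or P2Y6 receptor, seeded at 20,000 cells/well two days before assay. Inositol lipids labelled for 16 h with 1.0 μCi myo-[3H]inositol in serum-free, inositol-free DMEM. Agonist added in HEPES pH 7.3/HBSS with LiCl, 30 min at 37°C. Stopped with ice-cold 50 mM formic acid; [3H]inositol phosphates counted by scintillation proximity assay. Triplicates.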

Compound: O=c1ccn([C@@H]2O[C@H](COP(=O)(O)OP(=O)(O)OP(=O)(O)O)[C@@H](O)[C@H]2O)c(=O)[nH]1 [URIDINE TRIPHOSPHATE]
- Activity: < 50%
